This is a selection; strong and weak results do not stand in their true shares. Active and inactive are the calls of the source. Cut-off read from the data, not from the text of the source: active = inhibition above about 25%; inactive = the rest.

Protein sequences, listed by entry. Tags and fused reporters are not part of them. Residues count along the entry.
UniProt Q9ULH1, 325-724 limits assumed: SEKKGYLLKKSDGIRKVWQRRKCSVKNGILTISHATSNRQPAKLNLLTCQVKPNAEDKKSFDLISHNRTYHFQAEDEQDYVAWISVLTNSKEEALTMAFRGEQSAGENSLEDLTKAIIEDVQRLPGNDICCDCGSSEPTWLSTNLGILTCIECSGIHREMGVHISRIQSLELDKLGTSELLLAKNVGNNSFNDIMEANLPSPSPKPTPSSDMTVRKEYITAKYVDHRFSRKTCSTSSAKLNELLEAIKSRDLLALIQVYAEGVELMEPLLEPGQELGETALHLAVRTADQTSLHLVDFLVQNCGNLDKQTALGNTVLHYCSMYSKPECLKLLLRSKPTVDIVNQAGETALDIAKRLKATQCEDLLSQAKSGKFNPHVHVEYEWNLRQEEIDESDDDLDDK

The assay concerns the target Arf-GAP with SH3 domain, ANK repeat and PH domain-containing protein 1 (Homo sapiens) (UniProt Q9ULH1). The experiment in a line: blockers of ASAP1-stimulated ARF1 GTP hydrolysis – biochemical, fluorescence polarization, primary screen (AID 624377).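 Note: 0% = vehicle with enzyme and substrate and 100% = no enzyme.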 The conditions noted are these: GDP FP detection, at 16.5 µM, active compounds read high.
For orientation: inhibition means the change of the read-out against control, counted positive when it falls. On to `CCOc1ccc(C)cc1CN(CCCl)CCCl`, for which the inhibition is inactive: -2.31%.

Consider `CC(C)(C)n1nnnc1C(c1ccccc1)N1CCC(n2c(=O)[nH]c3ccccc32)CC1` (stereo not drawn), for which the inhibition was inactive: 6.82%. Take `O=C1CCN(Cc2ccccc2)CC1`: the inhibition is inactive: -0.23%. In the case of `CCCCOc1ccc(C(=O)NCC2(N3CCOCC3)CCCCC2)cc1` it was inactive: -10.1%; in that of `O=P1(N(CCCl)CCCl)SCCCS1`, inactive: 12.6%. As for `CCCCn1nnnc1C(c1cc2ccccc2o1)N1CCC(n2c(=O)[nH]c3ccccc32)CC1` (stereo not drawn), the figure is inactive: -7.48%; as for `O=C(NCC1(N2CCCCC2)CCCCC1)c1ccc(F)cc1`, inactive: 7.46%. In the case of `CCOC(=O)N1CCC(Nc2ccc(F)cc2)CC1` it was inactive: -2.49%; in that of `COc1ccc(NC2CCN(CCc3ccccc3)CC2)c(OC)c1`, inactive: -11.2%. Consider `O=c1[nH]c2ccccc2n1C1CCN(C(c2ccccc2)c2nnnn2C2CCCCC2)CC1` (stereo not drawn), for which the inhibition was inactive: 2.41%. `O=c1[nH]c2ccccc2n1C1CCN(C(c2cccc3ccccc23)c2nnnn2C2CCCC2)CC1` (stereo not drawn): the inhibition is inactive: 9%.

`CCOC(=O)N1CCC(Nc2cccc(C)c2)CC1`: the inhibition was inactive: -2.89%. In the case of `COc1cc(C(=O)NCC2(N(C)C)CCCCC2)ccc1OC(F)F` it was inactive: 2.33%; in that of `O=C(NCC1(N2CCCCC2)CCCCC1)c1ccc(=O)[nH]c1`, inactive: 0.64%. In the case of `O=C(NCC1(N2CCCCC2)CCCCC1)c1cccs1` it was inactive: 4.04%. In the case of `CCCCn1nnnc1C(CC)N1CCC(n2c(=O)[nH]c3ccccc32)CC1` (stereo not drawn) it was inactive: -9.22%; in that of `CCCCn1nnnc1C(c1cccs1)N1CCC(n2c(=O)[nH]c3ccccc32)CC1` (stereo not drawn), inactive: 3.91%; in that of `COc1ccc(C(=O)NCC2(N3CCCCC3)CCCCC2)cc1`, inactive: -12.2%. Consider `CC(C)(C)OC(=O)N1CCC(N(C(=O)c2ccccc2)c2ccc(F)cc2)CC1`, for which the inhibition is inactive: -4.31%. Take `COc1ccc(C(=O)NCC2(N3CCCCC3)CCCCC2)c(OC)c1OC`: the inhibition was inactive: -0.83%. As for `CCC(c1nnnn1C1CCCC1)N1CCC(n2c(=O)[nH]c3ccccc32)CC1` (stereo not drawn), the figure is inactive: -2.29%. In the case of `CSc1ccccc1C(=O)NCC1(N2CCCCC2)CCCCC1` it was inactive: 2.36%; in that of `Cc1cccc(NC2(C#N)CCN(Cc3ccccc3)CC2)c1`, inactive: 0.1%; in that of `O=C(NCC1(N2CCOCC2)CCCCC1)c1cc2ccccc2o1`, inactive: 2.44%. Turning to `O=C(NCC1(N2CCCCC2)CCCCC1)c1ccc(Cl)nc1`, the inhibition was inactive: 4.18%. As for `O=c1[nH]c2ccccc2n1C1CCN(C(c2ccccc2OC(F)(F)F)c2nnnn2C2CCCCC2)CC1` (stereo not drawn), the figure is inactive: -8.64%; as for `Cc1cc(C)cc(N(C(=O)c2ccccc2)C2CCN(C(=O)OC(C)(C)C)CC2)c1`, inactive: 1.68%.

Consider `CCOC(=O)N1CCC(Nc2ccc(OC)cc2)CC1`, for which the inhibition is inactive: -3.93%. As for `CCCCn1nnnc1C(c1ccc(OC)cc1)N1CCC(n2c(=O)[nH]c3ccccc32)CC1` (stereo not drawn), the figure is inactive: -16.3%; as for `N#CC1(Nc2ccccc2)CCN(Cc2ccccc2)CC1`, inactive: 6.01%. On to `O=C(NCC1(N2CCCCC2)CCCCC1)c1ccc(Cl)s1`, for which the inhibition is inactive: -0.55%. As for `O=c1[nH]c2ccccc2n1C1CCN(C(c2cc3ccccc3o2)c2nnnn2C2CCCCC2)CC1` (stereo not drawn), the figure is inactive: 2.86%. As for `O=C(OC1CN2CCC1CC2)C1c2ccccc2Oc2ccccc21` (stereo not drawn), the figure is inactive: 0.3%. For the compound `COc1ccc(Cl)cc1C(=O)NCC1(N2CCOCC2)CCCCC1`, the inhibition was inactive: -3.23%.

`COc1ccc(CN(CCCl)CCCl)cc1Cl`: the inhibition is inactive: -9.62%. As for `CN(C)c1cccc(C(=O)NCC2(N3CCCCC3)CCCCC2)c1`, the figure is inactive: -6.75%; as for `CC(C)c1ccc(NC2CCN(C(=O)OC(C)(C)C)CC2)cc1`, inactive: -12.9%; as for `CCCCn1nnnc1C(c1ccnc2ccccc12)N1CCC(n2c(=O)[nH]c3ccccc32)CC1` (stereo not drawn), inactive: 0.86%. In the case of `COc1cc(OC)c(C(=O)NCC2(N(C)C)CCCCC2)cc1OC` it was inactive: -0.59%; in that of `CCC(c1nnnn1C(C)(C)C)N1CCC(n2c(=O)[nH]c3ccccc32)CC1` (stereo not drawn), inactive: 9.67%. On to `O=C(NCC1(N2CCOCC2)CCCCC1)c1cc(F)c(F)cc1Cl`, for which the inhibition was inactive: 11.4%. In the case of `CN1CCC(Nc2cccc(F)c2)CC1` it was inactive: 23.6%; in that of `O=C(NCC1(N2CCCCC2)CCCCC1)c1cncc(Br)c1`, inactive: -5.26%. As for `Cc1ccc(C(=O)NCC2(N(C)C)CCCCC2)o1`, the figure is inactive: -7.27%.

On to `CCCOc1ccc(C(=O)NCC2(N(C)C)CCCCC2)cc1OC`, for which the inhibition was inactive: -3.8%. As for `COc1ccc(C(c2nnnn2C2CCCC2)N2CCC(n3c(=O)[nH]c4ccccc43)CC2)cc1` (stereo not drawn), the figure is inactive: -1.95%; as for `CC(C)(C)n1nnnc1C(c1ccccc1OC(F)(F)F)N1CCC(n2c(=O)[nH]c3ccccc32)CC1` (stereo not drawn), inactive: -0.19%; as for `O=C(NCC1(N2CCCCC2)CCCCC1)c1ccc(OC(F)F)cc1`, inactive: 2.63%. As for `CSc1ccc(C(=O)NCC2(N3CCOCC3)CCCCC2)cc1`, the figure is inactive: -2.82%; as for `O=C(NCC1(N2CCCCC2)CCCCC1)c1cccc([N+](=O)[O-])c1`, inactive: -5.8%. As for `CCN1CCC(Nc2ccc(Cl)cc2)CC1`, the figure is inactive: 2.85%; as for `O=c1[nH]c2ccccc2n1C1CCN(C(c2ccccc2OC(F)(F)F)c2nnnn2C2CCCC2)CC1` (stereo not drawn), inactive: -8.43%.

Turning to `N#CC1(Nc2ccccc2)CCN(CCc2ccccc2)CC1`, the inhibition was inactive: 11.3%.

Turning to `O=C(NCC1(N2CCCCC2)CCCCC1)c1cccc(C(F)(F)F)c1`, the inhibition was inactive: -2.77%. In the case of `CC(C)c1ccc(C(=O)NCC2(N3CCOCC3)CCCCC2)cc1` it was inactive: 7.5%. As for `COc1ccc(NC2CCN(C(=O)OC(C)(C)C)CC2)cc1`, the figure is inactive: -8.28%. In the case of `CN1CCN(CCOC(=O)C(O)(c2ccccc2)c2ccccc2)CC1` it was inactive: 0.04%; in that of `CCCCn1nnnc1C(c1cccc2ccccc12)N1CCC(n2c(=O)[nH]c3ccccc32)CC1` (stereo not drawn), inactive: 12.2%; in that of `O=C(NCC1(N2CCOCC2)CCCCC1)c1cc(=O)[nH]c2ccccc12`, inactive: 9.41%.

In the case of `COc1cc(C(=O)NCC2(N3CCCCC3)CCCCC2)ccc1OC(F)F`, the inhibition was inactive: -3.92%. In the case of `CC(C)(C)OC(=O)N1CCC(N(C(=O)c2ccccc2)c2ccc(Cl)cc2)CC1` it was inactive: -2.35%; in that of `N#Cc1ccc(C(=O)NCC2(N3CCCCC3)CCCCC2)cc1`, inactive: -9.21%. With `C/C(N)=N\P(=O)(Oc1ccccc1)Oc1ccccc1`, the inhibition was inactive: -0.67%.

`c1ccc(CN2CCC(Nc3ccccc3)CC2)cc1`: the inhibition is inactive: 2.64%.

As to `Cc1cc(N(CCCl)CCCl)ccc1C=O`, the inhibition was inactive: -18.1%. In the case of `O=c1[nH]c2ccccc2n1C1CCN(C(c2ccccc2)c2nnnn2C2CCCC2)CC1` (stereo not drawn) it was inactive: -2.97%; in that of `CCCN1CCC(Nc2cc(OC)cc(OC)c2)CC1`, inactive: 16%. As for `CN(C)C1(CNC(=O)c2cccc(C#N)c2)CCCCC1`, the figure is inactive: -4.62%. As for `CC(C)(C)n1nnnc1C(c1cccc2ccccc12)N1CCC(n2c(=O)[nH]c3ccccc32)CC1` (stereo not drawn), the figure is inactive: -13.8%; as for `O=C(NCC1(N2CCOCC2)CCCCC1)c1cc(Br)ccc1Cl`, inactive: -14.2%. For `CCCCn1nnnc1C(c1ccccc1)N1CCC(n2c(=O)[nH]c3ccccc32)CC1` (stereo not drawn), the inhibition is inactive: -5.11%. As for `COc1cc(C(=O)NCC2(N3CCOCC3)CCCCC2)cc(OC)c1C`, the figure is inactive: 6.8%; as for `COc1ccc(C(=O)NCC2(N3CCOCC3)CCCCC2)cc1OC`, inactive: 15.6%. As for `O=c1[nH]c2ccccc2n1C1CCN(C(c2ccnc3ccccc23)c2nnnn2C2CCCC2)CC1` (stereo not drawn), the figure is inactive: 9.02%. As for `O=c1[nH]c2ccccc2n1C1CCN(C(c2cccs2)c2nnnn2C2CCCCC2)CC1` (stereo not drawn), the figure is inactive: -5.18%. Take `N/C(=N\O)c1c(N)no[n+]1[O-]`: the inhibition is inactive: -15.2%. Take `CCOC(=O)N1CCC(Nc2ccc(C)cc2)CC1`: the inhibition is inactive: -3.59%. In the case of `COc1cccc(C(c2nnnn2C(C)(C)C)N2CCC(n3c(=O)[nH]c4ccccc43)CC2)c1OC` (stereo not drawn) it was inactive: -11.6%.

Regarding `CCCCn1nnnc1C(c1cccc(OC)c1OC)N1CCC(n2c(=O)[nH]c3ccccc32)CC1` (stereo not drawn), the inhibition is inactive: -6%. Turning to `O=C(OC1CN2CCC1CC2)C1c2ccccc2C=Cc2ccccc21` (stereo not drawn), the inhibition is inactive: -14.8%.

Take `O=c1[nH]c2ccccc2n1C1CCN(C(c2cccs2)c2nnnn2C2CCCC2)CC1` (stereo not drawn): the inhibition was inactive: 4.24%.

Turning to `CCOc1ncccc1C(=O)NCC1(N2CCOCC2)CCCCC1`, the inhibition was inactive: -20%. As for `CN1CCC(Nc2ccc(F)c(Cl)c2)CC1`, the figure is inactive: 2.48%; as for `O=c1[nH]c2ccccc2n1C1CCN(C(c2cc3ccccc3o2)c2nnnn2C2CCCC2)CC1` (stereo not drawn), inactive: -2.11%. As for `CCCOc1ccc(C(=O)NCC2(N(C)C)CCCCC2)cc1`, the figure is inactive: 0.46%. As for `CC(C)(C)OC(=O)N1CCC(Nc2ccccc2)CC1`, the figure is inactive: 3.54%. In the case of `NN(c1ccccc1)C1CCN(CCc2ccccc2)CC1`, the inhibition was inactive: -5.86%.

As to `O=C(O)C1(Nc2ccccc2)CCN(Cc2ccccc2)CC1`, the inhibition is inactive: -9.96%. As for `CCC(CO)(C(=O)OC1CN2CCC1CC2)c1ccccc1` (stereo not drawn), the figure is inactive: 6.91%; as for `COc1cccc(C(=O)N(c2cc(C)cc(C)c2)C2CCN(C(=O)OC(C)(C)C)CC2)c1`, inactive: -6.56%; as for `COc1cccc(C(c2nnnn2C2CCCC2)N2CCC(n3c(=O)[nH]c4ccccc43)CC2)c1OC` (stereo not drawn), inactive: -7.96%. As for `COc1cc(OC)cc(C(=O)NCC2(N3CCOCC3)CCCCC2)c1`, the inhibition was inactive: 5.73%. As for `CN1CCC(Nc2ccc(Cl)cc2)CC1`, the figure is inactive: 1.51%; as for `COc1cc(OC)cc(C(=O)NCC2(N3CCCCC3)CCCCC2)c1`, inactive: -13.2%. For `O=c1[nH]c2ccccc2n1C1CCN(C(c2ccnc3ccccc23)c2nnnn2C2CCCCC2)CC1` (stereo not drawn), the inhibition was inactive: 8.83%. As for `COc1cccc(C(c2nnnn2C2CCCCC2)N2CCC(n3c(=O)[nH]c4ccccc43)CC2)c1OC` (stereo not drawn), the figure is inactive: 2.06%. In the case of `CC(=O)N(c1ccccc1)C1CCNCC1` it was inactive: -6.04%; in that of `CCC(c1nnnn1C1CCCCC1)N1CCC(n2c(=O)[nH]c3ccccc32)CC1` (stereo not drawn), inactive: 1.33%. As for `Cc1ccc(NC2(C#N)CCN(Cc3ccccc3)CC2)cc1`, the figure is inactive: 12.4%; as for `Cc1ccc(C(=O)NCC2(N3CCCCC3)CCCCC2)o1`, inactive: 1.02%. With `Fc1ccccc1NC1CCN(Cc2ccccc2)CC1`, the inhibition is inactive: 0.99%. For `Cc1ccccc1NC1(C#N)CCN(Cc2ccccc2)CC1`, the inhibition is inactive: 0.03%.

Take `CCN1CCC(Nc2cccc(F)c2)CC1`: the inhibition was inactive: -4.45%. As for `COc1ccc(C(c2nnnn2C2CCCCC2)N2CCC(n3c(=O)[nH]c4ccccc43)CC2)cc1` (stereo not drawn), the inhibition is inactive: 3.66%. In the case of `CC(C)(C)n1nnnc1C(c1ccnc2ccccc12)N1CCC(n2c(=O)[nH]c3ccccc32)CC1` (stereo not drawn) it was inactive: 9.39%.

In the case of `O=C(NCC1(N2CCCCC2)CCCCC1)c1ccco1`, the inhibition is inactive: 0.12%.

As for `CN(C)c1ccc(C(=O)NCC2(N3CCCCC3)CCCCC2)cc1`, the inhibition was inactive: -1.86%. As for `Cn1c(=O)[nH]cc(N(CCCl)CCCl)c1=O`, the figure is inactive: 5.33%.
